Experimental data: patent US7501425B1, “Bicyclic pyrimidines and bicyclic 3,4-dihydropyprimidines as inhibitors of cellular proliferation” (Warner Lambert Company, priority 1999, dated 2009)

The chains behind the UniProt entries cited, without tags or fusion partners. Residues count along the entry.
UniProt P05622, 599-961 limits assumed: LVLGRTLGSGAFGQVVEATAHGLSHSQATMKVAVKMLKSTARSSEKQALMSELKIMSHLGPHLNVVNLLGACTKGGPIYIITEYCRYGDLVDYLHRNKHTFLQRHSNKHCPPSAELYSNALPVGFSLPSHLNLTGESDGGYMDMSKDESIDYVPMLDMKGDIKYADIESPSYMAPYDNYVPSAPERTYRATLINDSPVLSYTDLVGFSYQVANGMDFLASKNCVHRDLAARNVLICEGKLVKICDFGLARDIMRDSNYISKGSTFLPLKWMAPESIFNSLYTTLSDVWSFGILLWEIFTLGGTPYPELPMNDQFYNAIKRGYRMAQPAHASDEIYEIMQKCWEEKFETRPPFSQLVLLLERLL
UniProt P11362, 478-767 limits assumed: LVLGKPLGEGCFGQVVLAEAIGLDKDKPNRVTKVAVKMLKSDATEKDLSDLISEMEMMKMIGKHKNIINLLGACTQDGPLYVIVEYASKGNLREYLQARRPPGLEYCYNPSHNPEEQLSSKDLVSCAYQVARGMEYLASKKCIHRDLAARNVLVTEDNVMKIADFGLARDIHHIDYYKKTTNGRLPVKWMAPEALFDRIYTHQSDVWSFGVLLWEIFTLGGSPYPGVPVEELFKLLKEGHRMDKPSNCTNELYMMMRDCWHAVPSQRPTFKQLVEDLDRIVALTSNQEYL

How the values were obtained:
[1] = molecular target: T1, PDGF-β receptor tyrosine kinase (Mus musculus, UniProt P05622); assay: PDGF receptor tyrosine kinase assay; format: biochemical; details: read-out: PDGF IC50; intracellular tyrosine kinase domain, SF9 lysate
T1 construct: amplify a fragment of DNA that codes for the intracellular tyrosine kinase domain; made in house; host or cells: SF9 insect cells (baculovirus)
Experimental: (§1) The assays used to determine these activities were carried out as follows:
(§2) PDGF and FGF Receptor Tyrosine Kinase Assays
(§3) PCR primers were designed to amplify a fragment of DNA that codes for the intracellular tyrosine kinase domain. The fragment was inserted into a baculovirus vector, cotransfected with AcMNPV DNA, and the recombinant virus isolated. SF9 insect cells were infected with the virus to overexpress the protein, and the cell lysate was used for the assay. Assays were performed in 96-well plates (100 μL/incubation/well), and conditions were optimized to measure the incorporation of ^32P from γ^32P-ATP into a glutamate-tyrosine co-polymer substrate. Briefly, to each well was added 82.5 μL of incubation buffer containing 25 mM Hepes (pH 7.0), 150 mM NaCl, 0.1% Triton X-100, 0.2 mM PMSF, 0.2 mM Na3VO4, 10 mM MnCl2, and 750 μg/mL of Poly (4:1) glutamate-tyrosine followed by 2.5 μL of inhibitor and 5 μL of enzyme lysate (7.5 μg/μL FGF-TK or 6.0 μg/μL PDGF-TK) to initiate the reaction. Following a 10 minute incubation at 25° C., […] of γ^32P-ATP (0.4 μCi plus 50 μM ATP) was added to each well, and samples were incubated for an additional 10 minutes at 25° C. […] Nonspecific activity was defined as radioactivity retained on the filters following incubation of samples with buffer alone (no enzyme). […]

[2] = molecular target: T2, FGF-1 (flg) receptor tyrosine kinase (Homo sapiens, UniProt P11362); assay: FGF receptor tyrosine kinase assay; format: biochemical; details: read-out: FGF IC50; intracellular tyrosine kinase domain, SF9 lysate
T2 construct: amplify a fragment of DNA that codes for the intracellular tyrosine kinase domain; made in house; host or cells: SF9 insect cells (baculovirus)
Experimental: as §1, §2, §3

IC50 [1]: > 50 µM
IC50 [2]: > 50 µM
SMILES: CCN(CC)CCOc1ccc(Nc2ncc3c(=O)n(Cc4ccc(OC)cc4)c(=O)n(C(C)C)c3n2)cc1 [Example 74]
